Drawing on PubChem BioAssay AID624418 (National Center for Advancing Translational Sciences (NCATS), 2012), this text covers activity change, negative = inhibition for 28 compounds.

This is a selection; strong and weak results do not stand in their true shares. Inconclusive results are not listed. Some salts and complexes are drawn in separate pieces, as the source files them; their charges need not balance. Activity calls are given as the source filed them. Calls follow the shape of the dose curve; as a rule, active = well fitted inhibition curve with a large enough effect; inconclusive = small, poorly fitted or top-dose-only effect, or another doubt; inactive = no such curve, though single readings can be large or run the other way.
% is scaled to controls: 0 for no effect and ±100 for the full control effect.

This test can be described thus: qHTS of GLP-1 Receptor Inverse Agonists: Cytotox Screen.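 Also: loss of luciferase light is scored as toxicity.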 Conditions: HEK293 cAMP-luciferase reporter cells, luminescence, 24 h; at 38.3 µM (top of the series). From the text:
The overall goal of this project was to develop a novel assay for discovering small molecule ligands for class B1 G protein-coupled receptors (GPCRs). Very few agonists (or inverse agonists) with generally weak activity for this entire group of physiologically important receptors are known to date. To establish proof-of-principle that this critical bottleneck can be overcome with a suitable screening approach, our studies focused on the class B1 receptor for glucagon-like peptide-1 (GLP-1R), a potential therapeutic target for diabetes and neurodegenerative disease.
The assay was developed using a cell-based functional readout. Toward this goal, stably transfected HEK293 cell clones were established that co-express (i) a cAMP-responsive luciferase reporter gene, and (ii) constitutively active GLP-1R that upon ligand interaction inhibit (inverse agonists) the luciferase activity. In addition, two control cell lines were developed: (i) one that express only the cAMP-responsive reporter gene to enable initial exclusion of GLP-1R independent effects of candidate probes; and (ii) one with the reported gene cloned with another constitutively active orphan receptor GPR119 to enable exclusion of GLP-1R independent inhibitor effects of candidate inverse agonists.
To that end, this assay was optimized for 1536-well format and screened against the MLSMR. Then the same collection was run in this cytotoxicity assay where inhibition was the undesired outcome.
NIH Molecular Libraries Probe Production Network [MLPCN]
NIH Chemical Genomics Center [NCGC]
PI Name: Martin Beinborn, Tufts Medical Center
Six ul of cell suspension (200 cells/uL in DMEM + 10% Nu serum + 1% pen-strep) is dispensed in a white solid 1536-well plate. The plates are incubated for 12 hours at 37 deg C at 5% CO2 followed by addition of 23 nL compounds. After 24 hr incubation at 37 deg C and 5% CO2, 3 uL of luciferase assay detection reagent is added. A luminescence read is obtained on the PerkinElmer Viewlux after 12 min incubation at room temperature.
(In qHTS, concentration-response curves come from the screen itself.)
Consider `CN1CCC(Nc2cccc(F)c2)CC1`, for which the activity change, negative = inhibition was inactive: -6.07%. For `O=C(NCC1(N2CCCCC2)CCCCC1)c1cncc(Br)c1`, the activity change, negative = inhibition is inactive: 4.51%. Take `COc1ccc2c(c1O)-c1c(O)c(OC)cc3c1[C@H](C2)[N+](C)(C)CC3.O=[N+]([O-])c1cc([N+](=O)[O-])c([O-])c([N+](=O)[O-])c1[O-]`: the activity change, negative = inhibition was inactive: -34.1%. For `O=C(OC1CN2CCC1CC2)c1ccc([N+](=O)[O-])cc1` (stereo not drawn) the value was inactive: -17.1%; for `CCCCn1nnnc1C(c1ccnc2ccccc12)N1CCC(n2c(=O)[nH]c3ccccc32)CC1` (stereo not drawn), inactive: -11.5%. As for `COc1cc(OC)c(C(=O)NCC2(N(C)C)CCCCC2)cc1OC`, the activity change, negative = inhibition is inactive: 1.33%. As to `O=C(NCC1(N2CCOCC2)CCCCC1)c1cc(F)c(F)cc1Cl`, the activity change, negative = inhibition is inactive: -0.921%. Regarding `CCC(c1nnnn1C(C)(C)C)N1CCC(n2c(=O)[nH]c3ccccc32)CC1` (stereo not drawn), the activity change, negative = inhibition was inactive: -8.25%. With `COc1ccc(CN(CCCl)CCCl)cc1Cl`, the activity change, negative = inhibition is inactive: -9.68%. As to `CN(C)c1cccc(C(=O)NCC2(N3CCCCC3)CCCCC2)c1`, the activity change, negative = inhibition is inactive: -2.92%. For `CC(C)c1ccc(NC2CCN(C(=O)OC(C)(C)C)CC2)cc1` the value was inactive: -1.23%. As for `COc1ccc(NC2CCN(C(=O)OC(C)(C)C)CC2)cc1`, the activity change, negative = inhibition is inactive: -25.2%. As for `CC(C)c1ccc(C(=O)NCC2(N3CCOCC3)CCCCC2)cc1`, the activity change, negative = inhibition was inactive: 10.7%. For `CN1CCN(CCOC(=O)C(O)(c2ccccc2)c2ccccc2)CC1` the value was inactive: 2.96%. Take `CCCCn1nnnc1C(c1cccc2ccccc12)N1CCC(n2c(=O)[nH]c3ccccc32)CC1` (stereo not drawn): the activity change, negative = inhibition was inactive: -11%. On to `O=C(NCC1(N2CCOCC2)CCCCC1)c1cc(=O)[nH]c2ccccc12`, for which the activity change, negative = inhibition was inactive: -11.6%.

For `COc1cc(C(=O)NCC2(N3CCCCC3)CCCCC2)ccc1OC(F)F`, the activity change, negative = inhibition was inactive: 1.85%.

As to `O=C(NCC1(N2CCCCC2)CCCCC1)c1cccc(C(F)(F)F)c1`, the activity change, negative = inhibition is inactive: -15.5%. As for `CCCOc1cccc(C(=O)NCC2(N3CCOCC3)CCCCC2)c1`, the activity change, negative = inhibition is inactive: 1.55%.

As to `O=[N+]([O-])c1cc([N+](=O)[O-])c(NCC2CCS(=O)(=O)C2)c([N+](=O)[O-])c1` (stereo not drawn), the activity change, negative = inhibition is inactive: -18.4%. On to `CSc1ccc(C(=O)NCC2(N3CCOCC3)CCCCC2)cc1`, for which the activity change, negative = inhibition is inactive: -2.62%.

On to `CCOc1ccc(C(=O)NCC2(N3CCOCC3)CCCCC2)cc1`, for which the activity change, negative = inhibition was inactive: 1.3%. As for `O=C(NCC1(N2CCCCC2)CCCCC1)c1cccc([N+](=O)[O-])c1`, the activity change, negative = inhibition was inactive: 13.1%.

`CCN1CCC(Nc2ccc(Cl)cc2)CC1`: the activity change, negative = inhibition was inactive: -7.73%. The same measure for `O=c1[nH]c2ccccc2n1C1CCN(C(c2ccccc2OC(F)(F)F)c2nnnn2C2CCCC2)CC1` (stereo not drawn): inactive: -13.5%; for `N#CC1(Nc2ccccc2)CCN(CCc2ccccc2)CC1`: inactive: 1.62%; for `CC(C)(C)n1nnnc1C(c1ccccc1OC(F)(F)F)N1CCC(n2c(=O)[nH]c3ccccc32)CC1` (stereo not drawn): inactive: -26.6%. On to `O=C(NCC1(N2CCCCC2)CCCCC1)c1ccc(OC(F)F)cc1`, for which the activity change, negative = inhibition was inactive: 3.2%.
